{
  "source": "patent US20220002429A1",
  "about": "“TUMOR CELL AGGREGATION INHIBITORS' FOR TREATING CANCER” (Northwestern University, priority 2018, published 2022)",
  "test_system": "TN1 PDX tumor cells",
  "experiment": "ex vivo aggregation (clustering) assay of dissociated PDX tumor cells, IncuCyte time-lapse imaging",
  "assay_type": "cell-based, human",
  "conditions": "neutralizing antibodies; IgG vs anti-EGFR, mab EGFR vs Cetuximab",
  "procedure": "Hyaluronan inhibition. Two complementary approaches were utilized to inhibit hyaluronan, the known CD44 ligand, in the two models. First, for the TN PDX model, dissociated cells were treated with hyaluronan antagonist (o-HA, HA oligomers) at 100 μg/mL during the 72-hour aggregation assays. For MDA-MB-231 cells, the hyaluronic acid synthase inhibitor 4-methylumbelliferone (4-MU, 0.4 mM/L) was added to the adherent culture. After 48 h of treatment, the cells were trypsinized and transferred to a poly-hydroxyethyl methacrylate (Poly-HEMA, Sigma-Aldrich) coated plate, and the images were taken at the indicated times by Leica microscopy.\nCell clustering assay. Freshly dissociated primary tumor cells in single cell suspension were seeded in collagen type I-coated 96-well plates. The plates were put into the IncuCyte live cell imaging system (Essen BioScience), and live images were taken every 2-4 h for up to one week. The cluster number and size were analyzed by Incucyte ZOOM software (Essen BioScience). In specific experiments, primary tumor cells might be sorted based on the expression of CD44 prior to seeding. In other experiments, seeded tumor cells might be transfected with siRNAs (100 nM) or treated with various inhibitors during the clustering assays. […]\nCell clustering assay. […] The cluster number and size were analyzed by Incucyte ZOOM software (Essen BioScience). […]",
  "data": [
    {"substance": "Cetuximab: FDA approved EGFR monoclonal antibody", "values": [
      {"measurement": "clustering formation of TN PDX tumor cells", "result": "instead of Cetuximab"}
    ]}
  ]
}
